Data on 1 molecule can be found in patent US10251952B2, “Humanized anti-tau(pS422) antibody brain shuttles and use thereof” (Hoffmann-La Roche Inc., priority 2014, dated 2019).

For experiment [1], the system named is hCMEC/D3 cells. Briefly: FACS: simultaneous cell surface and payload binding. The experiment is classed as cell-based. An excerpt:
To enable blood brain barrier-shuttle functionality of the bispecific antibodies, they must simultaneously bind to the blood brain barrier receptor on endothelial cells of the blood brain barrier, and to the haptenylated payloads to be shuttled. To evaluate this functionality of the hapten-binding bispecific antibodies as reported herein, simultaneous cell surface and payload binding was addressed by FACS analyses. For these analyses, cell binding of the blood brain barrier-shuttle module (=bispecific antibody) was detected by phytoerythrin-labeled IgG recognizing secondary antibodies. Simultaneous payload binding was detected by application of a haptenylated fluorescent payload (digoxigenylated Cy5; DIG-Cy5). The results of the FACS analysis, using hCMEC/D3 cells as TfR expressing BBB-derived cell line and Dig-Cy5 as fluorescent payload are shown in FIG. 9: both transferrin receptor binding bispecific antibodies bind to hCMEC/D3 as shown by the anti-IgG-PE associated signals. Similarly, both bispecific antibodies also and simultaneously bind Dig-Cy5 as shown by cell-associated Cy5 attributable signals.

Experiment [2] concerns hCMEC/D3 cells. Briefly: transwell cell binding and release of shuttle modules, IgG ELISA. The experiment is classed as cell-based. From the text:
We used brain endothelial cells (hCMEC/D3) to investigate cell binding and transcytosis of the shuttle modules as reported herein. Previous studies (Crepin et al., 2010; Lesley et al., 1989, WO 2012/075037, WO 2014/033074) reported that valency and affinity of TfR binding antibodies influence efficacy of binding to, transcytosis though, and release from endothelial cells of the blood brain barrier. To investigate cell binding and transcytosis in hCMEC/D3, hCMEC/D3 cells cultured on filter inserts were incubated apically with the bispecific antibody or parent antibody (without hapten-binding scFvs as controls) for 1 hour at 37° C. Cell monolayers were washed at room temperature in serum-free medium apically (400 μl) and basolaterally (1600 μl) three times for 3-5 minutes each. All wash volumes were collected to monitor efficiency of removal of the unbound ligand or antibody. Pre-warmed medium was added to the apical chamber and the filters transferred to a fresh 12 well plate (blocked overnight with PBS containing 1% BSA) containing 1600 μl pre-warmed medium. At this point, cells were lysed in 500 μl RIPA buffer (Sigma, Munich, Germany, #R0278) in order to determine specific uptakes. […] The content of antibody in the samples was quantified using a highly sensitive IgG ELISA.
(ELISA stands for enzyme-linked immunosorbent assay.)

B1: CD33-Dig: control bispecific antibody recognizing an antigen not present on hCMEC/D3 (CD33) and digoxigenin (antibody)
heavy: EVQLVQSGAEVKKPGSSVKVSCKASGYTITDSNIHWVRQAPGQSLEWIGYIYPYNGGTDYNQKFKNRATLTVDNPTNTAYMELSSLRSEDTAFYYCVNGNPWLAYWGQGTLVTVSSASTKGPSVFPLAPSSKSTSGGTAALGCLVKDYFPEPVTVSWNSGALTSGVHTFPAVLQSSGLYSLSSVVTVPSSSLGTQTYICNVNHKPSNTKVDKKV[letters of human IgG1 Fc omitted]GGGGSGGGGSQVQLVESGGGLVKPGGSLRLSCAASGFTFSDYAMSWIRQAPGKCLEWVSSINIGATYIYYADSVKGRFTISRDNAKNSLYLQMNSLRAEDTAVYYCARPGSPYEYDKAYYSMAYWGQGTTVTVSSGGGGSGGGGSGGGGSDIQMTQSPSSLSASVGDRVTITCRASQDIKNYLNWYQQKPGKAPKLLIYYSSTLLSGVPSRFSGSGSGTDFTLTISSLQPEDFATYYCQQSITLPPTFGCGTKVEIK
light: DIQLTQSPSTLSASVGDRVTITCRASESLDNYGIRFLTWFQQKPGKAPKLLMYAASNQGSGVPSRFSGSGSGTEFTLTISSLQPDDFATYYCQQTKEVPWSFGQGGTKVEVKEIKRTVAAPSVFIFPPSDEQLKSGTASVVCLLNNFYPREAKVQWKVDNALQSGNSQESVTEQDSKDSTYSLSSTLTLSKADYEKHKVYACEVTHQGLSSPVTKSFNRGEC
On to B1, for which, in the experiment with hCMEC/D3 cells [1], the “cell binding (anti-IgG-PE associated signals)” value is reported as “not generate relevant signals” and the “simultaneous payload binding (cell-associated Dig-Cy5 signals)” value is “not generate relevant signals”. Besides, the “binding to the cells” value with hCMEC/D3 cells [2] (1 hour at 37 °C apically) is on record as “do not bind to these cells”. Besides, the “release to apical or basolateral compartments” value in the experiment on hCMEC/D3 cells [2] (over time after washing) is “not released over time into apical or basolateral compartments”.
